Our source for the inhibition values is PubChem BioAssay AID463218 (Sanford-Burnham Center for Chemical Genomics, 2010).

Molecules are shown by their SMILES. This is a selection; strong and weak results do not stand in their true shares. Calls of active or inactive are those of the source.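 How the source made its calls: active means inhibition above about 39% in either of two replicate wells at 20 µM (limit read from the data); inactive means the rest.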

The assay in a line: tim23-1 mutant yeast growth inhibitors, confirmation, luminescence, single concentration (AID 463218).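 Further: temperature-sensitive tim23-1 mutant grown at 25 °C; 0% = DMSO wells with yeast and 100% = medium wells without yeast.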 The conditions noted are these: S. cerevisiae tim23-1 growth, BacTiter-Glo luminescence, 24 h; at 20 µM; stronger effect = higher value.
Take `O=[N+]([O-])c1cc([N+](=O)[O-])c(Nc2ccccn2)c([N+](=O)[O-])c1`: the inhibition is active: 72.5%.
